In series [1] the test system is OVCAR3, OVCAR5, DU145, PC3, LNCaP, TSU-PR1, and MCF-7 tumor cell lines. As to conditions: several tumor cell lines; dipyridamole with Ado/CF; 60 hours.
Series [2] has as its system sensitive cell lines. As to conditions: cordycepin substituted for adenosine in experiments as in Example 3.

Results on one molecule are retold here after US6579857B1, “Combination cancer therapy comprising adenosine and deaminase enzyme inhibitors” (Evanston Northwestern Healthcare Research Institute, priority 1999, dated 2003).

SMILES strings stand for the structures.

With `OCCN(CCO)c1nc(N2CCCCC2)c2nc(N(CCO)CCO)nc(N3CCCCC3)c2n1` [dipyridamole], in series [1], the “protection from cytotoxic effects of Ado/CF treatment” value is “consistently was able to protect”. In series [2], the “blocking the toxic effects of cordycepin” value is recorded as “ineffective”.
